# Yeast mating assay 1: variants of the scFv Ab-14

The measurements come from Engelhart et al. 2022 (doi:10.1038/s41597-022-01779-4) through the FLAb antibody collection.

Target peptide (SARS-CoV-2 spike, HR2 region): PDVDLGDISGINAS

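The parent was found by panning a naive human phage display library on the peptide. AAYL50 was designed without a model: most single CDR substitutions and a random sample of double and triple ones. In AlphaSeq, yeast of one mating type display the scFv and yeast of the other type display the target. Binding brings cells together so that they mate, and sequencing counts the barcode pairs among the diploids. A regression on co-assayed BCL2-family reference pairs converts the normalised counts of each replicate to an apparent Kd. Each pool was mated in three replicate cultures.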

Parent scFv Ab-14: VH joined to VL by the linker GGGGSGGGGSGGGGS. Changes lie in the light chain CDRs alone.
VH: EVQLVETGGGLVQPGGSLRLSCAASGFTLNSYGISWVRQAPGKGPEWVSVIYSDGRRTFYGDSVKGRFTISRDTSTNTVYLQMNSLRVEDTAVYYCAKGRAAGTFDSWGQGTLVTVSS
VL: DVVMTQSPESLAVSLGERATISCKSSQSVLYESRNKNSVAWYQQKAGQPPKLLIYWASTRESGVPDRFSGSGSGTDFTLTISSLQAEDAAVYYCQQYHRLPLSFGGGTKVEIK

Each variant is given by its three light chain CDRs, as the data file delimits them; those of the parent are KSSQSVLYESRNKNSVA, WASTRES, QQYHRLPLS. All variants listed here change K24 of the VL, counted from its first residue. Scale: log10 of Kd in nM, estimated from mating counts; low values are strong binders. Averages over replicates are reported, and they cover detected replicates only. An entry "nd" has no value in the source: the pair was not observed among the diploids in that replicate. This suggests poor binding but is not conclusive. In this assay the parent's reference entry averaged 0.65; its copy inside this library read 1.68.

Variant ESPQSVLYESRNKNSPA | WASTRES | QQYHRLPLS gave nd, nd, nd. With PSSQSVLYESRNKNSVA | WASARES | QQFHRLPLS the result was nd, nd, 4.88. For LSSQSVLYESRNKNSVV | WASTRES | QLYHRLPLS, the assay gave nd, nd, nd. Variant ASSQSSLYESRNKNSVA | WASTRES | QQYQRLPLS gave 5.38, nd, nd. With VSSQSVLYESRNKFSVA | WASTRES | VQYHRLPLS the result was 2.27, 2.06, 2.77 (mean 2.37). With HSSQSVLYESRNKNSVA | WASTRES | QQYARLPKS the result was 1.44, 1.48, 1.64 (mean 1.52). With VSSQSVLYESRNCNSVA | NASTRES | QQYHRLPLS the result was -0.07, 0.14, 0.02 (mean 0.03). For TSSQSVLYESRNKNSVA | WARKRES | QQYHRLPLS, the assay gave nd, 2.75, nd.

Variant LSSQSVLYESRNKNSVA | WASTAEL | QQYHRLPLS showed 3.72, 4.93, nd (mean 4.32). With ASSQSVLYPSRNKNRVA | WASTRES | QQYHRLPLS the result was 3.29, 3.60, nd (mean 3.45). For HSSQSVLYESRNKNKVA | WASTRES | QQYHILPLS, the assay gave 5.51, nd, nd. Variant LSSQSVEYESRNKNSVA | WASTRES | GQYHRLPLS showed 0.96, 1.09, 0.91 (mean 0.98). With LSSQSVLYESRNKNVVA | WASVRES | QQYHRLPLS the result was nd, nd, nd. For LSSQSVLYESRNKNSVA | WASTRES | QQYHRLPIQ, the assay gave 2.56, 2.40, 3.00 (mean 2.65). With VSSQSVLYESRNKNSMA | WASTRES | QRYHRLPLS the result was nd, 3.53, 3.16 (mean 3.35). For CSSQSVLYESRNWNSCA | WASTRES | QQYHRLPLS, the assay gave nd, nd, nd.

Variant CYSQSVLYESRNKNSVA | WASTRES | QPYHRLPLS gave nd, nd, nd. Variant RSSQSVLRESRNKNSKA | WASTRES | QQYHRLPLS showed 3.44, nd, 5.72 (mean 4.58). Variant QSSQSVLYESRNKNSVA | WASTRES | QQYHRLPLS gave 1.23, 1.26, 1.48 (mean 1.32). Variant QASQSVLYDSRNKNSVA | WASTRES | QQYHRLPLS showed 0.51, 0.81, 0.64 (mean 0.65). Variant YSSQSVLYESRNKNSSM | WASTRES | QQYHRLPLS gave 4.08, 3.86, nd (mean 3.97). For ESSQSVLYESRNKNSVA | WASTRES | QQYHRDPLS, the assay gave 4.56, 2.16, 3.51 (mean 3.41). With SSSQSVLYESRNKNSVA | WASTRES | MQYHRLTLS the result was nd, nd, nd. Variant HSSQSVLYESRNKNSVA | WASTREL | QQEHRLPLS gave 0.32, 1.13, 0.34 (mean 0.60).

With YSGQSVLYESRNKNSVA | KASTRES | QQYHRLPLS the result was 0.46, 0.85, 0.59 (mean 0.63). Variant DSSQSVLYESRIKNSVA | WASTRES | QQYFRLPLS gave 2.54, 1.60, 1.51 (mean 1.89). Variant ESSFSNLYESRNKNSVA | WASTRES | QQYHRLPLS gave 3.17, 2.35, 2.55 (mean 2.69). With ISSQSVLYESRNKNSVL | WASTRES | QQYHGLPLS the result was nd, nd, nd. With FSSQSVLYESRNPNSYA | WASTRES | QQYHRLPLS the result was nd, nd, nd. With TSSQSVLYESRNKNSVA | WASTRES | SQIHRLPLS the result was nd, nd, nd.

A selection of 2 entries from above:

| CDR-L1 | CDR-L2 | CDR-L3 | log10 Kd (nM) by replicate | log10 Kd (nM), mean |
|---|---|---|---|---|
| ISSQSVLYESRNKNSVL | WASTRES | QQYHGLPLS | nd, nd, nd | nd |
| DSSQSVLYESRIKNSVA | WASTRES | QQYFRLPLS | 2.54, 1.60, 1.51 | 1.89 |

Background: pairings of library AAYL50 with three empty control strains gave a value in 18% of cases (median 4.19, 5th percentile 2.99). Values in that range, when seen in few replicates, are hard to tell from nonspecific mating.